Source: ChEMBL document CHEMBL4400531, “Structure-Based Design of N-(5-Phenylthiazol-2-yl)acrylamides as Novel and Potent Glutathione S-Transferase Omega 1 Inhibitors” (J Med Chem, 2019)

Tests used:
HT-29 = assay: cells; details: Homo sapiens, HT-29, 72 h
HCT-116 = assay: cells; details: Homo sapiens, HCT-116, 72 h
[1] = Metabolic stability in human liver microsomes at 1 uM in presence of NADPH incubated for 5 mins by LC-MS/MS analysis; format: ADME, Microsome; details: read-out: Stability
[2] = Metabolic stability in human liver microsomes at 1 uM in presence of NADPH incubated for 0 mins by LC-MS/MS analysis; format: ADME, Microsome; details: read-out: Stability
[3] = Metabolic stability in human liver microsomes at 1 uM in presence of NADPH incubated for 45 mins by LC-MS/MS analysis; format: ADME, Microsome; details: read-out: Stability
[4] = Metabolic stability in mouse liver microsomes at 1 uM in presence of NADPH incubated for 60 mins by LC-MS/MS analysis; format: ADME, Microsome; details: read-out: Stability
[5] = Metabolic stability in mouse liver microsomes at 1 uM in presence of NADPH incubated for 10 mins by LC-MS/MS analysis; format: ADME, Microsome; details: read-out: Stability
[6] = Metabolic stability in mouse liver microsomes at 1 uM in presence of NADPH incubated for 30 mins by LC-MS/MS analysis; format: ADME, Microsome; details: read-out: Stability
[7] = Metabolic stability in human liver microsomes at 1 uM in presence of NADPH incubated for 15 mins by LC-MS/MS analysis; format: ADME, Microsome; details: read-out: Stability
[8] = Metabolic stability in human liver microsomes at 1 uM in presence of NADPH incubated for 10 mins by LC-MS/MS analysis; format: ADME, Microsome; details: read-out: Stability
[9] = Metabolic stability in mouse liver microsomes at 1 uM in presence of NADPH incubated for 15 mins by LC-MS/MS analysis; format: ADME, Microsome; details: read-out: Stability
[10] = Metabolic stability in human liver microsomes at 1 uM in presence of NADPH incubated for 60 mins by LC-MS/MS analysis; format: ADME, Microsome; details: read-out: Stability
[11] = Metabolic stability in human liver microsomes at 1 uM in presence of NADPH incubated for 30 mins by LC-MS/MS analysis; format: ADME, Microsome; details: read-out: Stability
[12] = Metabolic stability in mouse liver microsomes at 1 uM in presence of NADPH incubated for 5 mins by LC-MS/MS analysis; format: ADME, Microsome; details: read-out: Stability
[13] = Metabolic stability in mouse liver microsomes at 1 uM in presence of NADPH incubated for 0 mins by LC-MS/MS analysis; format: ADME, Microsome; details: read-out: Stability

Row | IC50 (HT-29) | IC50 (HCT-116) | Structure (SMILES) | further results
1 | 18 to 25.3 µM | 19.6 to 24.7 µM | C=CC(=O)Nc1nc(-c2ccccc2)c(C(=O)OCC)s1 | –
2 | – | 20.1 to 21.7 µM | C=CC(=O)Nc1nc(-c2ccccc2)c(C)s1 | –
3 | 16.2 to 24.9 µM | – | C=CC(=O)Nc1nc(-c2ccccc2O)cs1 | –
4 | 24.4 to 29.5 µM | 19.3 to 20.7 µM | C=CC(=O)N(Cc1cc(C)no1)c1cc(-c2ccccc2O)cs1 | –
5 | – | 15.3 to 18.6 µM | C=CC(=O)Nc1nc(-c2ccc(C)cc2)cs1 | –
6 | – | 11.9 to 14.3 µM | C=CC(=O)Nc1nc(-c2cccc(Cl)c2)cs1 | –
7 | 17.7 to 20.1 µM | – | C=CC(=O)Nc1nc(-c2ccc3c(c2)OCO3)cs1 | –
8 | 12.2 to 14.5 µM | – | C=CC(=O)N(CC(=O)NCCN1CCOCC1)c1nc(-c2ccccc2)cs1 | –
9 | 13.3 to 14.8 µM | 14.6 to 19.8 µM | C=CC(=O)N(CC(=O)N1CCOCC1)c1nc(-c2ccccc2)cs1 | –

The next lines start with the molecule.

Row | Structure (SMILES) | IC50 (HT-29) | IC50 (HCT-116) | further results
10 | C=CC(=O)Nc1nc(-c2ccccc2Cl)cs1 | 10.2 to 19.5 µM | 12.3 to 20.1 µM | –
11 | C=CC(=O)Nc1nc(-c2ccccc2)cs1 | – | 18.6 to 29 µM | –
12 | C=CC(=O)Nc1ncc(-c2ccccc2)s1 | 24.3 to 29.3 µM | – | –
13 | C=CC(=O)Nc1nc(-c2ccc(C(F)(F)F)cc2)cs1 | 4 to 5.7 µM | 4 to 5.7 µM | –
14 | C=CC(=O)Nc1nc(-c2ccc(OC)cc2)cs1 | – | 8 to 12.9 µM | –
15 | C=CC(=O)N(CC(=O)NC1COC1)c1nc(-c2ccccc2)cs1 | – | 20.8 to 23.2 µM | –
16 | C=CC(=O)Nc1nc(-c2ccc(Cl)cc2)cs1 | 17.3 to 23.7 µM | 12.6 to 20.6 µM | remaining at 5 min, 1 µM [1]: 66.7%; remaining at 0 h, 1 µM [2]: 100%; remaining at 0.75 h, 1 µM [3]: 8.04%; remaining at 1 h, 1 µM [4]: 5.36%; remaining at 10 min, 1 µM [5]: 17.9%; remaining at 0.5 h, 1 µM [6]: 7.14%; remaining at […], 1 µM [7]: 39.1%; remaining at 10 min, 1 µM [8]: 48.3%; remaining at […], 1 µM [9]: 12.5%; remaining at 1 h, 1 µM [10]: 5.75%; remaining at 0.5 h, 1 µM [11]: 19.5%; remaining at 5 min, 1 µM [12]: 33.9%; remaining at 0 h, 1 µM [13]: 100%
17 | C=CC(=O)N(Cc1cc(C)no1)c1nc(-c2ccc(C(F)(F)F)cc2)cs1 | 22.3 to 25.9 µM | – | –
18 | C=CC(=O)Nc1nc(-c2ccc3ccccc3c2)cs1 | 12.5 to 13.4 µM | 11.8 to 17.4 µM | –
19 | C=CS(=O)(=O)Nc1ccc(Cl)c(S(=O)(=O)N(C)C)c1 | 10.2 to 16.8 µM | 9.9 to 11 µM | –
